This note sets out measurements from PMC6658998, “Pharmacological characterization of the seven human NOX isoforms and their inhibitors” (Redox Biology, 2019).

Experiment [1] deals with T1, NOX5 (Homo sapiens, UniProt Q96PH1).
T1 construct: expressed in transfected cells
T1 sequence (Q96PH1 19-737 isoform Q96PH1-3 limits assumed): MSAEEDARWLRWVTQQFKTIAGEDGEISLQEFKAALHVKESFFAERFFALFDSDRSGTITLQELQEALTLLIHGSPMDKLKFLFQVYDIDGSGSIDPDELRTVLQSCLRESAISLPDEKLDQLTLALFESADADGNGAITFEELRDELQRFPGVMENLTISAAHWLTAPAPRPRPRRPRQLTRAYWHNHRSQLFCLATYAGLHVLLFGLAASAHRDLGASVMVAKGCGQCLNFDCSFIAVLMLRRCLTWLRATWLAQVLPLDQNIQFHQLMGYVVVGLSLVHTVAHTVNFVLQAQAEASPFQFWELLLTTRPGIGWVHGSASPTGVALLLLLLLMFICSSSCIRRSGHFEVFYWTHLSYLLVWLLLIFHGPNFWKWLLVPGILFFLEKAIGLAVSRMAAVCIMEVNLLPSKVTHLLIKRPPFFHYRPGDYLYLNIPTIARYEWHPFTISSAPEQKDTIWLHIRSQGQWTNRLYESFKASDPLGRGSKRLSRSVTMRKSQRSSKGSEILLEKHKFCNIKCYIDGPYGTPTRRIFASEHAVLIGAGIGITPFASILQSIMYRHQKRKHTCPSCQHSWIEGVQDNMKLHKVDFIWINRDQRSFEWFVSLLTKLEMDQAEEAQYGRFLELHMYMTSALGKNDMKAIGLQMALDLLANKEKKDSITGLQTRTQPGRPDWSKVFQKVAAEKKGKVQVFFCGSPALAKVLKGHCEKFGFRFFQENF
In words: Amplex Red/HRP H2O2 detection in NOX5-expressing HEK293 cells. In kind it is cell-based.

Experiment [2] concerns the target T1, NOX5. As to the kind of experiment: WST-1 O2•- detection in NOX5-expressing HEK293 cells. In kind it is cell-based.

Turning to `c1ccc2c(c1)[I+]c1ccccc1-2` [DPI, diphenylene iodonium chloride], the half-inhibitory concentration (IC50) amounted to 400 nM at NOX5 [1] and 1200 nM against NOX5 [2].

By IC50 is commonly meant the concentration at which inhibition is half-maximal. Read a low IC50 as greater potency.
